Tested on: lyso-PLD
Experiment: In vitro membrane lyso-PLD assay (B-lyso-PC substrate, B-LPA product)
Type: biochemical, rat
Details: varying concentrations; qualitative experiments; cell line not stated

Substance | Stimulation of lyso-PLD activity
CaCl2 | did not stimulate lyso-PLD activity
CoCl2 | did not stimulate lyso-PLD activity

— paper PMC10969092, “Characterization of Lysophospholipase D Activity in Mammalian Cell Membranes” (Cells, 2024)
